The record followed here is US10617743B2, “Method to improve safety and efficacy of anti-cancer therapy” (CLS Therapeutics Limited, priority 2014, dated 2020).

Assay [1] can be described thus: Acute doxorubicin toxicity in rats: blood cell counts and blood biochemistry. As to conditions: surviving rats; Doxorubicin 3.75 mg/kg; DNase I 15 mg/kg/day IP.
Assay [2] can be described thus: Acute doxorubicin toxicity in rats: body weight of surviving rats. As to conditions: Doxorubicin 3.75 mg/kg, DNase I 15 mg/kg/day IP.

B1: human recombinant DNase I: human recombinant DNase I (Pharmsynthez OJSC), deoxyribonuclease enzyme (protein, UniProt P24855 23-282, looked up)
Deoxyribonuclease-1: LKIAAFNIQTFGETKMSNATLVSYIVQILSRYDIALVQEVRDSHLTAVGKLLDNLNQDAPDTYHYVVSEPLGRNSYKERYLFVYRPDQVSAVDSYYYDDGCEPCGNDTFNREPAIVRFFSRFTEVREFAIVPLHAAPGDAVAEIDALYDVYLDVQEKWGLEDVMLMGDFNAGCSYVRPSQWSSIRLWTSPTFQWLIPDSADTTATPTHCAYDRIVVAGMLLRGAVVPDSALPFNFQAAYGLSDQLAQAISDHYPVEVMLK
For the molecule B1, the “Effect on bone marrow toxicity and catabolic changes in blood biochemistry” value in assay [1] was “ameliorates bone marrow toxicity and catabolic changes in blood biochemistry”. The “Effect on body weight loss after acute doxorubicin challenge” value in assay [2] is recorded as “ameliorates body weight loss”.
